Experimental data reported in ChEMBL document CHEMBL1268842, “Discovery of N-benzyl-2-[(4S)-4-(1H-indol-3-ylmethyl)-5-oxo-1-phenyl-4,5-dihydro-6H-[1,2,4]triazolo[4,3-a][1,5]benzodiazepin-6-yl]-N-isopropylacetamide, an orally active, gut-selective CCK1 receptor agonist for the potential treatment of obesity” (Bioorg Med Chem Lett, 2010).
pEC50, pIC50: −log10 of the molar value.

Sequences of proteins named here, by UniProt entry; tags and fusion partners are left off.
UniProt P30551, whole entry: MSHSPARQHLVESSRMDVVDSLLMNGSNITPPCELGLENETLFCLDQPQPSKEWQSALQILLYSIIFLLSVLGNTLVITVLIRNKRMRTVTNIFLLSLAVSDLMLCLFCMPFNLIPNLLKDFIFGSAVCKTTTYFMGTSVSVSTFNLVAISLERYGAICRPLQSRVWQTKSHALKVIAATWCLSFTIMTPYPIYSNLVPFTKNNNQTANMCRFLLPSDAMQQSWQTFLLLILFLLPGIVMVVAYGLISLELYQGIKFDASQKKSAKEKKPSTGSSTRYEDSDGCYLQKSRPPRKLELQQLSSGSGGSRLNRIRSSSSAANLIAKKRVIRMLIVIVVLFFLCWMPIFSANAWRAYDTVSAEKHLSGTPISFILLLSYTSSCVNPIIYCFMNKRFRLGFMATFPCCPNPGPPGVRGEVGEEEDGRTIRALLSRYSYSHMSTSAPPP

Tests used:
[1] = biological target: T1, Cholecystokinin receptor type A (Rattus norvegicus, UniProt P30551); assay: Agonist activity at rat CCK1 receptor expressed in CHO cells assessed as induction of calcium release by FLIPR assay; format: functional, cell-based
How it was run: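 Calcium release was measured by FLIPR at the rat CCK1 receptor to give EC50. Values are mean ± standard error of at least two independent experiments.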

[2] = biological target: T1, Cholecystokinin receptor type A; assay: Displacement of [125I]CCK8 from rat CCK1 receptor expressed in CHO cells; format: cell-based
How it was run: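 Binding IC50 at the rat CCK1 receptor. Values are mean ± standard error of at least two independent experiments.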

pEC50 [1]: 6.35
pIC50 [2]: 7.91
SMILES: CC(C)N(Cc1ccccc1)C(=O)CN1C(=O)[C@@H](Cc2c[nH]c3ccccc23)c2nnc(-c3ccccc3)n2-c2ccccc21 [CE-326597]
